Reference: ChEMBL document CHEMBL1122206, “Use of adenine nucleotide derivatives to assess the potential of exo-active-site-directed reagents as species- or isozyme-specific enzyme inactivators. 5. Interactions of adenosine 5'-triphosphate derivatives with rat pyruvate kinases, Escherichia coli thymidine kinase, and yeast and rat …” (1982)

Assays:
[1] = test system: Hexokinase (Saccharomyces cerevisiae); assay: Compound was tested for time dependent inhibition of hexokinase activity after 6 hr, at 0 degrees celsius, with 10 mM ATP derivative in yeast hexokinase
[2] = Realtive affinity expressed as KM (ATP or ADP)/ Ki of inhibitor.
[3] = biological target: T1, Hexokinase-1 (Rattus norvegicus) (UniProt P05708); assay: Time dependent inhibition of Hexokinase type I activity after 6 h, at 22 degrees celsius, at 5 mM compound
T1 sequence (whole entry): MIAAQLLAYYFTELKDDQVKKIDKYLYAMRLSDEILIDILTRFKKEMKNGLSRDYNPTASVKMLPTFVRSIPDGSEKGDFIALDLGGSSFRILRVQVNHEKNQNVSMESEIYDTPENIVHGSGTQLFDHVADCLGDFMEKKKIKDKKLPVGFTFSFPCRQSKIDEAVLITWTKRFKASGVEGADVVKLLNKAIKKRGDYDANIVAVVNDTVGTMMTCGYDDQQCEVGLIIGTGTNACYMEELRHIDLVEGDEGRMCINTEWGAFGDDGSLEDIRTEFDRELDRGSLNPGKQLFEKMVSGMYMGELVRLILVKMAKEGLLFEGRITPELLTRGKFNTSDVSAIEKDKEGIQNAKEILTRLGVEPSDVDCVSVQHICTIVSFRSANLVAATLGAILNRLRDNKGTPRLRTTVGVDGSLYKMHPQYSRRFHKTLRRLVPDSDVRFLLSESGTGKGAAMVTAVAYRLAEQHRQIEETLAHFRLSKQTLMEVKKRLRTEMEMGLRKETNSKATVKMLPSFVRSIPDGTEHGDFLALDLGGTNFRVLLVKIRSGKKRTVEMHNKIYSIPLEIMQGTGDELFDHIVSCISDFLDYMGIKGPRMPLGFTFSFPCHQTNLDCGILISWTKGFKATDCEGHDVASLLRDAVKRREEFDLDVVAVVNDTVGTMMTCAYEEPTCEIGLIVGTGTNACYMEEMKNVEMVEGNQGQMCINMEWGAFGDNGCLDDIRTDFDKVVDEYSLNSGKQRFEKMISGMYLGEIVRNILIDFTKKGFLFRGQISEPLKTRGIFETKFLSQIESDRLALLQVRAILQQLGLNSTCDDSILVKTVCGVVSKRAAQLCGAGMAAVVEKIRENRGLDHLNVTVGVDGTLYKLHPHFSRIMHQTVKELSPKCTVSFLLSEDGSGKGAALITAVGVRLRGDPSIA

SMILES: O=C(CI)NCCCCCCNc1ncnc2c1ncn2[C@@H]1O[C@H](COP(=O)(O)OP(=O)(O)OP(=O)(O)O)[C@@H](O)[C@H]1O
- inhibition [1]: 23%
- Relative affinity [2]: 0.28
- inhibition [3]: 23%
